Measurements as given in ChEMBL document CHEMBL6153078, “Design, synthesis, and biological evaluation of imidazolidinone derivatives as potent PPARα/δ agonists for the treatment of cholestatic liver diseases” (Eur J Med Chem, 2025).
The source made the active and inactive calls.

By UniProt entry, the sequences of proteins in these tests, tags left out.
UniProt P13631, whole entry: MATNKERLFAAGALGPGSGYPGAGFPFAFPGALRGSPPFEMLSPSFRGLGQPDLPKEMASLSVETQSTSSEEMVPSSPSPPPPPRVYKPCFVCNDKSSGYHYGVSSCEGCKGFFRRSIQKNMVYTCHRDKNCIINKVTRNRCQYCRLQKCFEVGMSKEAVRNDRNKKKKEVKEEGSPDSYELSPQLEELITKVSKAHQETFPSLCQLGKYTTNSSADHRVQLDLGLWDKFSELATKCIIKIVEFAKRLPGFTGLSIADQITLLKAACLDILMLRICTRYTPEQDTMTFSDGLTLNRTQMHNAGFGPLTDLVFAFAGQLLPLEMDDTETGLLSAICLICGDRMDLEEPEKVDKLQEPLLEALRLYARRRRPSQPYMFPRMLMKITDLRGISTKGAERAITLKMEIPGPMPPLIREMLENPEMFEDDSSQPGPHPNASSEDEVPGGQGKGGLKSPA
UniProt P10826, whole entry: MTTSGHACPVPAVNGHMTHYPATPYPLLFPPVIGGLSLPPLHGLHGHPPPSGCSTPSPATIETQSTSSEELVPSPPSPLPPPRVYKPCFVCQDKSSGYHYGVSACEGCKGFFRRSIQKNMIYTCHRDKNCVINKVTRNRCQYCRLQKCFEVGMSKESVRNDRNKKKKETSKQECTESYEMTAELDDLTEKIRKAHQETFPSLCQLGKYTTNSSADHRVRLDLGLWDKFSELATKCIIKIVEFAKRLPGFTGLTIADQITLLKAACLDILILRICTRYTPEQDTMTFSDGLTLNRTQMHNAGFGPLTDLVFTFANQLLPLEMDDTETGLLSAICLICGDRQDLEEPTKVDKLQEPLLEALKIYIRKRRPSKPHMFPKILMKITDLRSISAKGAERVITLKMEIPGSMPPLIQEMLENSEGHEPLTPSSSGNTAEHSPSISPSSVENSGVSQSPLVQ
UniProt P10276, whole entry: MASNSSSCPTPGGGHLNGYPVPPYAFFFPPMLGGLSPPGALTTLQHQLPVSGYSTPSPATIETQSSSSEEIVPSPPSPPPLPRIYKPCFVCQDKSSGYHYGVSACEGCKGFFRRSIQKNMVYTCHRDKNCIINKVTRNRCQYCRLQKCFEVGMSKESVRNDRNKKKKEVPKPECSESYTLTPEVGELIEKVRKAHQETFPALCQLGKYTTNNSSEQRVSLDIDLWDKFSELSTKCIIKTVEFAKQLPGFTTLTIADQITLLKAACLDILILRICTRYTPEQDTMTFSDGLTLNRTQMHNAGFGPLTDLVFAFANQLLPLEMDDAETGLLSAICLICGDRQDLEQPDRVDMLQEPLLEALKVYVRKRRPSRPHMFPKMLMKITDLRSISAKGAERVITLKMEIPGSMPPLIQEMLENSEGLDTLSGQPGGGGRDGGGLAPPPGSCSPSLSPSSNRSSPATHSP

Tests used:
Assay type in all cases: cell-based
Conditions in all cases: dose 1-10 µM
[1] = molecular target: Retinoic acid receptor gamma (Homo sapiens) (UniProt P13631); assay: Agonist activity at GAL4-fused RAR-gamma (unknown origin) transfected in African green monkey COS7 cells at 1 to 10 uM incubated for 16 hrs by Luciferase assay
[2] = molecular target: Retinoic acid receptor beta (Homo sapiens) (UniProt P10826); assay: Inhibition of GAL4-fused RAR-beta (unknown origin) transfected in African green monkey COS7 cells at 1 to 10 uM incubated for 16 hrs by Luciferase assay
[3] = molecular target: T1, Vitamin D3 receptor (Homo sapiens) (UniProt P11473); assay: Agonist activity at GAL4-fused VDR (unknown origin) transfected in African green monkey COS7 cells at 1 to 10 uM incubated for 16 hrs by Luciferase assay
T1 sequence (whole entry): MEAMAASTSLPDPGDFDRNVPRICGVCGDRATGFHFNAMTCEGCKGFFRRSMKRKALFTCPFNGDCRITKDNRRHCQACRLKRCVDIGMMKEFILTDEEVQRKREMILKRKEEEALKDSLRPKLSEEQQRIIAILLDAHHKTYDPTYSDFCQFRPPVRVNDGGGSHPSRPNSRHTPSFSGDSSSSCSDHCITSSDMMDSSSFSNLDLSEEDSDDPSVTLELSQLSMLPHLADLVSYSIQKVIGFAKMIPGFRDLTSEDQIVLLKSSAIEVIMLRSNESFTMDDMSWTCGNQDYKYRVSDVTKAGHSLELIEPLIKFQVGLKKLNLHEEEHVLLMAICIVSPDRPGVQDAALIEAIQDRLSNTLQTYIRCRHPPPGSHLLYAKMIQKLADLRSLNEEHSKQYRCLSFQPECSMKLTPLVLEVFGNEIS

[4] = molecular target: Retinoic acid receptor gamma (Homo sapiens) (UniProt P13631); assay: Inhibition of GAL4-fused RAR-gamma (unknown origin) transfected in African green monkey COS7 cells at 1 to 10 uM incubated for 16 hrs by Luciferase assay
[5] = molecular target: Retinoic acid receptor alpha (Homo sapiens) (UniProt P10276); assay: Agonist activity at GAL4-fused RAR-alpha (unknown origin) transfected in African green monkey COS7 cells at 1 to 10 uM incubated for 16 hrs by Luciferase assay
[6] = molecular target: T1, Vitamin D3 receptor (Homo sapiens); assay: Inhibition of GAL4-fused VDR (unknown origin) transfected in African green monkey COS7 cells at 1 to 10 uM incubated for 16 hrs by Luciferase assay
[7] = molecular target: Retinoic acid receptor beta (Homo sapiens) (UniProt P10826); assay: Agonist activity at GAL4-fused RAR-beta (unknown origin) transfected in African green monkey COS7 cells at 1 to 10 uM incubated for 16 hrs by Luciferase assay
[8] = molecular target: Retinoic acid receptor alpha (Homo sapiens) (UniProt P10276); assay: Inhibition of GAL4-fused RAR-alpha (unknown origin) transfected in African green monkey COS7 cells at 1 to 10 uM incubated for 16 hrs by Luciferase assay

Cc1cc(CN2CCN(c3ccc(C(F)(F)F)cc3)C2=O)cc(C)c1OC(C)(C)C(=O)O
inactive: Activity [1] | inhibition [2] | Activity [3] | inhibition [4] | Activity [5] | inhibition [6] | Activity [7] | inhibition [8]
